According to patent US6495517B2, “Cyclooxygenase inhibitor” (A. Natterman & Cie. GmbH, priority 1998, dated 2002):

What was measured:
mouse = test: LD50 determination, intraperitoneal administration; assay type: in vivo; details: administered intraperitoneally
Protocol: Concerning the toxicity of compounds A and B, their LD50 values were determined through use of mice and rats. […] One of the compounds, S-(2-phenylcarbamoyl-phenylselenyl)albumin, was tested for the acute toxicity. […].

rat = test: LD50 determination in rats; assay type: in vivo
mice = test: Acute toxicity, intravenous administration to mice; assay type: in vivo, mouse; details: dissolved in physiological saline (5 g/kg administered)
Protocol: Concerning the toxicity of compounds A and B, their LD50 values were determined through use of mice and rats. […] One of the compounds, S-(2-phenylcarbamoyl-phenylselenyl)albumin, was tested for the acute toxicity. The compound was dissolved in physiological saline and was intravenously administered to mice (5 g/kg). Its LD50 was much higher than 1 g/kg, thus confirming its high safety level.

Wistar strain male rats = test: Acute toxicity test, intravenous administration to rats; assay type: in vivo, rat; details: intravenous 1 g/kg/3 ml, observed twenty-four hours
Text: (§1) Four Wistar strain male rats at 8 weeks of age were subjected to an acute toxicity test.

mouse and rat = test: Much higher doses of administration to mouse and rat; assay type: in vivo; details: both mouse and rat
Text: as §1

[1] = target: T1, Cyclooxygenase 2 derived from sheep placentae (Ovis aries, UniProt P79208); test: In vitro inhibition of cyclooxygenase 2 activity (synthesis of prostaglandin H2 from 14C-arachidonic acid, TLC autoradiography); details: sheep placenta COX-2, 35° C., 30 min
T1 sequence (P79208 17-603): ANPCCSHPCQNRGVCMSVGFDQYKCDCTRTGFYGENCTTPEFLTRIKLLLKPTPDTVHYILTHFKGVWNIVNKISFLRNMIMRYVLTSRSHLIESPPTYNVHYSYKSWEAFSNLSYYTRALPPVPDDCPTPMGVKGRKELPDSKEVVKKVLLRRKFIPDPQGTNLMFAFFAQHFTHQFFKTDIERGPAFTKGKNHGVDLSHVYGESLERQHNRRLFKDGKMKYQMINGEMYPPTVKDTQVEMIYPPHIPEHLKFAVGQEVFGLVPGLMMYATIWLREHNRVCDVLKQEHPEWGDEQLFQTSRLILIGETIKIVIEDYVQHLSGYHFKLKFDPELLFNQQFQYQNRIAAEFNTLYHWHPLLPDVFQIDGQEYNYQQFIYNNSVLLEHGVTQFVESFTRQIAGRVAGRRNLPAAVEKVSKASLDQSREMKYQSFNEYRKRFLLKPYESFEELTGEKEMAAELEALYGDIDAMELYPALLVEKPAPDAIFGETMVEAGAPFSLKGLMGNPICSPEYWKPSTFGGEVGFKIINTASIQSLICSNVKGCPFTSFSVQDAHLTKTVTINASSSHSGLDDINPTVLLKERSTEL

Q: With “S-(2-phenylcarbamoyl-phenylselenyl)-albumin [Compound B]” as the substance, how does the LD50 (mouse) read?
A: 740 mg/kg

Q: What about the LD50 (rat) of the same substance?
A: large doses were required

Q: What about the LD50 (mice) of the same substance?
A: higher than 1 g/kg

Q: And the Side effects (Wistar strain male rats)?
A: no particular side effect was noticed

Q: And the Survival (Wistar strain male rats)?
A: all rats survived healthily

Q: What about the Side effects (mouse and rat) of the same substance?
A: no problematic side effect was observed

Q: What about the “Generated Amount of Prostaglandin H2 (%)” value ([1]; dose of compound 1 μM) of the same substance?
A: 78.33 ± 10.58%

Q: What about the “Generated Amount of Prostaglandin H2 (%)” value ([1]; dose of compound 3 μM) of the same substance?
A: 72.13 ± 4.53 %

Q: What about the “Generated Amount of Prostaglandin H2 (%)” value ([1]; dose of compound 10 μM) of the same substance?
A: 35.40 ± 1.49 %
